# Assay results taken from patent US7067251B2 (priority 2000, dated 2006).
# System: C3H10T½ cells
# Assay type: cell-based, murine
substance,measurement,value
BMP-2,Type X collagen expression,induces differentiation into mature chondrocytes and expression of type X collagen
same,Type X collagen synthesis,fails to induce synthesis of type X collagen
